# Experimental data taken from patent US8216783B2, “Over-expression and mutation of a tyrosine kinase receptor FGFR4 in tumors” (The United States of America, as represented by the …, priority 2008, dated 2012).
# The chains behind the UniProt entries cited, without tags or fusion partners. Residues count along the entry.
# UniProt P22455, 22-802 N535K: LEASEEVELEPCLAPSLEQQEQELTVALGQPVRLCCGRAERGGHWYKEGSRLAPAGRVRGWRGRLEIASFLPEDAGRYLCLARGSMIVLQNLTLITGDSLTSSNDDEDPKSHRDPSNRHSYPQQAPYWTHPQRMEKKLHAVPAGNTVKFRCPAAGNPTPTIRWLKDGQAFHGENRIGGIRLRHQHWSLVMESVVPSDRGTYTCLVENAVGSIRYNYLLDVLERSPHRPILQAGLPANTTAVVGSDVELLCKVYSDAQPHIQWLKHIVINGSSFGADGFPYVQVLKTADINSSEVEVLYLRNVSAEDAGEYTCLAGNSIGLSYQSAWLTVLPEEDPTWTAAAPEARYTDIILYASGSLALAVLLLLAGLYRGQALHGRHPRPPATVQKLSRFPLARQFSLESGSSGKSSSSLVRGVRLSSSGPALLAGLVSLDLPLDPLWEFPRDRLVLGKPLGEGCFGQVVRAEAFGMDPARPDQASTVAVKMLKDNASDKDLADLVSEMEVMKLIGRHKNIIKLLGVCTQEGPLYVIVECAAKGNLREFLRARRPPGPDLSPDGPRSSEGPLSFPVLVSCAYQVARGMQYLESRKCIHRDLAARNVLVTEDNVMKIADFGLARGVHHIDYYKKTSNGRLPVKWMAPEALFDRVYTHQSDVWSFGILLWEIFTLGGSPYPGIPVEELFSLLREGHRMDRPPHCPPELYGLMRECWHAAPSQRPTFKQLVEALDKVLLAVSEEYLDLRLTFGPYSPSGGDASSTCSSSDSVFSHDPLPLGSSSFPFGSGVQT
# UniProt P22455, 22-802 V550E: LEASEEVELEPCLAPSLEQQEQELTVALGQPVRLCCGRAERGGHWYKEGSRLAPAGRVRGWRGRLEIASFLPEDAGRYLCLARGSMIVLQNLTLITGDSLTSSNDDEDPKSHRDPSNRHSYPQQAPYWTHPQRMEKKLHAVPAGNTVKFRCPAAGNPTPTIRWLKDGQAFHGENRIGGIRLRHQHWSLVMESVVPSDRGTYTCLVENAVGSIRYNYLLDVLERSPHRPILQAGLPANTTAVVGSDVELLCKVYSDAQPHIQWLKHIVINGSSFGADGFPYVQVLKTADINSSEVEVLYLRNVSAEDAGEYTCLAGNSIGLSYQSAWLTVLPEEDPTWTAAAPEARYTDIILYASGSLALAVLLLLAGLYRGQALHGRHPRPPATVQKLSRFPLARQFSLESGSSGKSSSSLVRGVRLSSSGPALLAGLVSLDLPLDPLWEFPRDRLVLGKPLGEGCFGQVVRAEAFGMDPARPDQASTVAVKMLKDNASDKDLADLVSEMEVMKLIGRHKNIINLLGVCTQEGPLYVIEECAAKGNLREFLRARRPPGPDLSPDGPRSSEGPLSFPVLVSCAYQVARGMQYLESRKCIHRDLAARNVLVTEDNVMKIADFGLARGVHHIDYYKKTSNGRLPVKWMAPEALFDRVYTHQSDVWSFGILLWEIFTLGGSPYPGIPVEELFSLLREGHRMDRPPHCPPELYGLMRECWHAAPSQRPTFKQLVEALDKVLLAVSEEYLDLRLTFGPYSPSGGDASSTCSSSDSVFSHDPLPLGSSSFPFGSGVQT
# Tests used:
# [1] = target: FGFR4 N535K (K535) (Homo sapiens, UniProt P22455, N535K); settings: RMS772 K535, 20 μM of drug, 3 hour treatment
# [2] = target: FGFR4 V550E (E550) (Homo sapiens, UniProt P22455, V550E); settings: RMS772 E550, 20 μM of drug, 3 hour treatment
smiles,measurement,setting,value
CCN(CC)CCCCNc1ncc2cc(-c3cc(OC)cc(OC)c3)c(NC(=O)NC(C)(C)C)nc2n1 [PD173074],"phospho-FGFR4 (normalized to total FGFR4), of pretreatment levels",[1],74%
same,"phospho-FGFR4 (normalized to total FGFR4), of pretreatment levels",[2],45%
